The entries are a selection whose mix differs from that of the whole data set. Entries with a potency or affinity are not part of this list. Some of these compounds have results that are not shown, active ones among them. Activity calls are given as the source filed them. Rule as the data show it: active = inhibition above about 50%; inactive = the rest.

The chains behind the UniProt entries cited, without tags or fusion partners.
UniProt P41145, whole entry: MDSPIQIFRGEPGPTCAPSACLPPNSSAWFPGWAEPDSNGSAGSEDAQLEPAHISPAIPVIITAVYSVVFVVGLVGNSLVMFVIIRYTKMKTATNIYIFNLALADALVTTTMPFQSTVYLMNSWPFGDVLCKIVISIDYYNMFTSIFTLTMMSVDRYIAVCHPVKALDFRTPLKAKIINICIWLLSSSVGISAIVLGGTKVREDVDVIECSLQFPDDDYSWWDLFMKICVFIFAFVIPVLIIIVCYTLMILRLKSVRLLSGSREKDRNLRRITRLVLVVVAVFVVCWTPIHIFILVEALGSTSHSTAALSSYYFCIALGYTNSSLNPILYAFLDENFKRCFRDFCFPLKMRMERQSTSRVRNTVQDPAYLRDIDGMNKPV

This experiment addresses Kappa-type opioid receptor (Homo sapiens) (UniProt P41145). Description: KOR antagonists, beta-arrestin recruitment, cell-based, luminescence, uHTS (AID 1778). The note with it: antagonist mode, at 10 µM, stronger effect = higher value.
For orientation: inhibition means the drop in the measured response relative to a control, in per cent. Regarding `COc1cc(C(=O)NCC2(N(C)C)CCCCC2)c([N+](=O)[O-])cc1OC`, the inhibition is inactive: -16.5%. Regarding `CN(C)C1(CNC(=O)c2ccc(Br)cc2)CCCCC1`, the inhibition is inactive: 6.3%.

With `O=C(NCC1(N2CCCCC2)CCCCC1)c1cccc(Cl)c1`, the inhibition is inactive: 19.2%. As for `COc1ccc(Cl)cc1C(=O)NCC1(N(C)C)CCCCC1`, the inhibition is inactive: -15.7%. `COc1cccc(C(=O)NCC2(N3CCCCC3)CCCCC2)c1`: the inhibition was inactive: -15%. Regarding `O=C(OC1CN2CCC1CC2)C(CO)(c1ccccc1)c1ccccc1` (stereo not drawn), the inhibition is inactive: 27.9%.

Regarding `CC(C)Oc1ccc(C(=O)NCC2(N(C)C)CCCCC2)cc1`, the inhibition is inactive: 2.6%. For the molecule `CN(C)c1cccc(C(=O)NCC2(N(C)C)CCCCC2)c1`, the inhibition is inactive: -4.6%. `COc1ccc(Br)c(C(=O)NCC2(N3CCCCC3)CCCCC2)c1`: the inhibition was inactive: -3%. Turning to `CN1[C@@H]2CC[C@H]1CC(OC(=O)C(O)(c1ccccc1)c1ccccc1)C2` (stereo partly drawn), the inhibition was inactive: -0.1%. With `O=C(NCC1(N2CCCCC2)CCCCC1)c1cc([N+](=O)[O-])ccc1Cl`, the inhibition is inactive: 0.3%. With `Cc1ccc(C(=O)NCC2(N3CCCCC3)CCCCC2)cc1`, the inhibition was inactive: -19.7%. For `COc1cc(SC)ccc1C(=O)NCC1(N(C)C)CCCCC1`, the inhibition was inactive: -19.2%. As to `CCN(CC)CC(C)C(C)OC(=O)C(O)(c1ccccc1)c1ccccc1` (stereo not drawn), the inhibition was inactive: 18%. Consider `CC(C)N1C(=O)CC2(CCN(CCOC(=O)C(O)(c3ccccc3)c3ccccc3)CC2)C1=O`, for which the inhibition was inactive: -8.8%. As to `CN(C)c1ccc(C(=O)NCC2(N(C)C)CCCCC2)cc1`, the inhibition was inactive: 19.9%. As for `CN(C)C1CCCC1OC(=O)C(O)(c1ccccc1)c1ccccc1` (stereo not drawn), the inhibition is inactive: -10.7%.

Turning to `Cc1ccccc1C(=O)NCC1(N2CCCCC2)CCCCC1`, the inhibition is inactive: -12.7%. As to `COc1ccc(C(=O)NCC2(N(C)C)CCCCC2)cc1`, the inhibition is inactive: -18.2%. The value for `O=C(NCC1(N2CCCCC2)CCCCC1)c1cccc(Br)c1` was inactive: -9.8%; that for `CCN1CCCC(OC(=O)C2(O)c3ccccc3C=Cc3ccccc32)C1` (stereo not drawn) was inactive: -31.6%. For `Cc1cc(C(=O)NCC2(N3CCCCC3)CCCCC2)ccc1[N+](=O)[O-]`, the inhibition is inactive: -19.5%. Turning to `O=C(NCC1(N2CCCCC2)CCCCC1)c1cc(F)c(F)cc1Cl`, the inhibition is inactive: -6.5%.

The values are drawn from PubChem BioAssay AID1778 (Sanford-Burnham Center for Chemical Genomics, 2009).
